In PMC11066837:

Legend:
[1] = target: 14-3-3τ labeled with Alexa Fluor 568 (human) (UniProt P27348); experiment: MST; 338 nM total 14-3-3τ of which 50 nM labeled (14-3-3τ-AF568), constant; αS at increasing concentrations spanning the regime of αS multimerization; 10 mM Tris pH 7.4, 10 mM NaCl, 23 °C; Hill fit; concentration axis is total αS
[2] = target: 14-3-3τ labeled with Alexa Fluor 568 (human) (UniProt P27348); experiment: MST; 7 nM 14-3-3τ-AF568 (50 nM total 14-3-3τ), constant; αS30 increased up to 2.1 μM (αS30 concentration, not monomer equivalent); 15 h incubation at RT, measured at 25 °C; Hill fit

Row | Substance | EC50 [1] [nM] | EC50 [2] [nM]
1 | Recombinant human α-synuclein wild-type (from UniProt P37840 1-140) (natural protein) | 519 | 
2 | αS30 oligomers (from UniProt P37840 1-140) (complex) |  | 7
